Assay results reported in PubChem BioAssay AID540329 (Sanford-Burnham Center for Chemical Genomics, 2011).
The entries are a selection whose mix differs from that of the whole data set. Activity calls are given as the source filed them.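 Rule for the calls: active = substances whose mean melting-temperature shift, as a percentage of the reference inhibitor's shift, reaches about 5.3% (limit read from the data); inactive = the rest.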

Chains of the proteins cited; added tags and fusions are not shown. Residues count along the entry.
UniProt Q9GZU7, 76-261 limits assumed: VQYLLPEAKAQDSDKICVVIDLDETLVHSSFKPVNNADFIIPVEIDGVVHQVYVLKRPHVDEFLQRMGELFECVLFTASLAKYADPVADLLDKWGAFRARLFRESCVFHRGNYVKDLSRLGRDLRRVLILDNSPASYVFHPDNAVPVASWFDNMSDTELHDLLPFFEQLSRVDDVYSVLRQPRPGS

biological target: Carboxy-terminal domain RNA polymerase II polypeptide A small phosphatase 1 (Homo sapiens) (UniProt Q9GZU7); assay: SCP1 melting temperature change from compounds – biophysical, differential scanning fluorimetry, orthogonal assay for Scp-1 inhibitor project, confirmation (AID 540329); conditions: Recombinant SCP1, Sypro Orange thermal shift Tm; at 40 µM; active compounds read high;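 note: 0% = Tm of DMSO wells and 100% = Tm with sodium orthovanadate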
How it was run: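 Test system: human Scp-1 phosphatase catalytic domain, residues 76-261. Input: Scp-1 from 10 µM stock. Incubation: Heating 20-95 °C, 0.03 °C/s ramp. Control set: vanadate reference. Buffer or medium: Tris acetate buffer at pH 5.5, with MgCl2 and Tween-20. Detection: differential scanning fluorimetry.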

Compound	thermal shift relative to vanadate control
O=C1C(O)=C([N+](=O)[O-])C(=O)C(O)=C1[N+](=O)[O-]	inactive: 3.02%
